Measured values published in patent US10517954B2, “Pegylated carfilzomib compounds” (AMGEN INC., priority 2016, dated 2019).

How the values were obtained:
[1] = Mean carfilzomib plasma concentration-time profiles, IV (FIG. 4, Table 4); details: male Balb/c mice
[2] = PEG-carfilzomib mouse pK (FIG. 2); type: in vivo; details: i.v. bolus, female Balb/c mice; control standard carfilzomib formulation 5 mg/kg
Method: Mean plasma concentration (μM) following intravenous administration of PEG-carfilzomib conjugate to female Balb/c mice (n=3). Dosage indicated is mg/kg of PEG-carfilzomib conjugate. […] Blood samples were collected at the indicated time points and plasma carfilzomib concentrations were measured in duplicate by LC/MS-MS. […] This standard carfilzomib represents the currently approved formulation for carfilzomib for treatment of multiple myeloma.

[3] = carfilzomib in plasma, IV 5 mg/kg (equivalent to carfilzomib)

Substance | AUC0-24 [1, 3] [ng·h/mL] | CL/F [1, 3] [mL/min/kg] | Cmax [1, 3] [ng/mL] | T1/2 [1, 3] [h] | Volume of Distribution (Vdss) [1, 3] [L/kg] | carfilzomib plasma concentration-time profile (FIG. 4) ([1]; i.v. bolus 5 mg/kg (equivalent to carfilzomib)) | time carfilzomib is present in / released into the plasma post administration ([1]; i.v. bolus 5 mg/kg (equivalent to carfilzomib), measured to 24 h) | carfilzomib plasma profile compared with control carfilzomib (FIG. 2) [2]
4-((4S,7S,10S,13S)-10-Benzyl-7-isobutyl-15-methyl-13-((R)-2-methyloxirane-2-carbonyl)-2,5,8,11-tetraoxo-4-phenethyl-3,6,9,12-tetraazahexadecyl)-4-(4-(isobutyryloxy)-3-((PEG5K-imino)methyl)benzyl)morpholin-4-ium methanesulfonate [Example 26] | 847 | 96.17 | 472 | 8.51 | 12.8 | higher concentrations | about 25 hours | 
4-(4-Acetoxy-3-(1-(PEG5K-imino)ethyl)benzyl)-4-((4S,7S,10S,13S)-10-benzyl-7-isobutyl-15-methyl-13-((R)-2-methyloxirane-2-carbonyl)-2,5,8,11-tetraoxo-4-phenethyl-3,6,9,12-tetraazahexadecyl)morpholin-4-ium methanesulfonate [Example 16] |  |  |  |  |  |  |  | improved availability of free, active carfilzomib over the same time period as that of the control
4-(3-Acetoxy-4-((PEG5K-imino)methyl)benzyl)-4-((4S,7S,10S,13S)-10-benzyl-7-isobutyl-15-methyl-13-((R)-2-methyloxirane-2-carbonyl)-2,5,8,11-tetraoxo-4-phenethyl-3,6,9,12-tetraazahexadecyl)morpholin-4-ium methanesulfonate [Example 18] |  |  |  |  |  |  |  | profile similar to that of the control carfilzomib
